Tests used:
[1] = rhBMP-2 solubility in water with heparin; assay type: physicochemical; conditions: weight ratio of heparin/rhBMP-2 above 4
Excerpt: To prepare the rhBMP-2/PLGA microspheres by the standard water-in-oil-in-water emulsion method, one major difficulty is the low aqueous solubility of rhBMP-2 at neutral pH, which prevents attainment of a high loading of rhBMP-2 in PLGA microspheres. To overcome this problem, the first approach was to add heparin as a polyanion to increase rhBMP-2 solubility at neutral pH. […] Therefore a heparin-rhBMP-2 complex (heparin/rhBMP-2 ration 7) was co-encapsulated with BSA into PLGA microspheres. […] The second approach was to decrease the pH in the buffer to increase rhBMP-2 solubility. Since BSA is not stable at low pH, obviously BSA is not a good candidate as a bulk excipient for rhBMP-2 delivery from PLGA microspheres. […] Therefore, 400 μl of water was directly added to one vial of rhBMP-2 lyophilized cake to prepare a 20 mg/ml rhBMP-2 solution containing a high concentration of salts at pH 4.5. Although rhBMP-2 is a relatively stable growth factor at an acidic pH below room temperature, rhBMP-2 may not survive when exposed to both body temperature and acidic microclimate caused by PLGA degradation (e.g., pH<2).

rats = assay: In vivo osteogenesis of subcutaneously implanted BMP-2 devices; conditions: BSA/Mg(OH)2-containing PLGA formulation implanted subcutaneously, data not shown
Excerpt: In both cases, a controlled release of protein was observed over 28 days (data not shown) resulting in a recovery (released+soluble residue fraction) of >80% (Table 3). In contrast, when the base was removed from the formulation (18% gum arabic), only 30% protein was recovered by the immunoassay. Therefore, the stability characteristic of BMP-2 in PLGA millicylinders was very similar to that of bFGF (although additional stabilizers were used for bFGF) with and without the addition of the basic additive. For both growth factors, in the absence of basic additive, the protein was released mostly on the first day and only a small amount of protein could be recovered from the polymer after 28 days release. In the presence of the basic salt, both proteins were continuously released with >80% recoverable in the 28-day experiment. Moreover, the in vivo biological activities (angiogenesis in nude mice for the bFGF and osteogenesis in rats for the BMP-2) of the BSA/Mg(OH)2-containing formulations were also confirmed when the devices were implanted subcutaneously (data not shown).

**Q.** What does the source list for “rhBMP-2: recombinant human bone morphogenetic protein-2”?
**A.** rhBMP-2 concentration remaining soluble in water [1]: ≥ 20 mg/mL; in vivo biological activity, osteogenesis (rats): confirmed

Source: patent publication US6743446B2, “Methods for stabilizing biologically active agents encapsulated in biodegradable controlled-release polymers” (The Ohio State University Research Foundation, priority 1999, dated 2004)
